Measurements from patent US9566281B2 (Westfaelische Wilhelms-Universitaet, priority 2012, dated 2017).

System: influenza A virus and/or influenza B virus

Compound | antiviral activity in combination with a neuraminidase inhibitor, such as oseltamivir
Cn1cnc2c(F)c(Nc3ccc(Br)cc3Cl)c(C(=O)NOCCO)cc21 [AZD-6244] | demonstrate antiviral activity
O=C(NOCC1CC1)c1ccc(F)c(F)c1Nc1ccc(I)cc1Cl [CI-1040] | demonstrate antiviral activity
COc1cc(F)c(F)c(Nc2ccc(I)cc2F)c1NS(=O)(=O)C1(C[C@H](O)CO)CC1 [RDEA-119] | demonstrate antiviral activity
CCCS(=O)(=O)Nc1ccc(F)c(C(=O)c2c[nH]c3ncc(-c4ccc(Cl)cc4)cc23)c1F [PLX-4032] | demonstrate antiviral activity
Cc1cc(C(=O)NOCCO)c(Nc2ccc(I)cc2F)n(C)c1=O [AZD-8330] | demonstrate antiviral activity
CC(=O)Nc1cccc(-n2c(=O)n(C3CC3)c(=O)c3c(Nc4ccc(I)cc4F)n(C)c(=O)c(C)c32)c1 [GSK-1120212] | demonstrate antiviral activity
